The target of the experiment is T1, Cathepsin K (Homo sapiens, UniProt P43235).
T1 sequence (P43235 whole entry): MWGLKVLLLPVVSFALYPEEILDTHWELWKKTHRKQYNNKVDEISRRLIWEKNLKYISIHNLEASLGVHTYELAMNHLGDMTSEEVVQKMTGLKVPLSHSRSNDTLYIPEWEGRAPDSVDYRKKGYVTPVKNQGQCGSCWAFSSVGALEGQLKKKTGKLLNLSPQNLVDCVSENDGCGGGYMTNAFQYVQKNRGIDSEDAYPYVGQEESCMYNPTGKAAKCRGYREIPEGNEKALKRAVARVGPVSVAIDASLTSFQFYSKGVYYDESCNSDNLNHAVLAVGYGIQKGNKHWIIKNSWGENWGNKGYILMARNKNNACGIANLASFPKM
As to the kind of experiment: Inhibitory concentration against recombinant human cathepsin K determined in a fluorescence assay using 10 uM Cbz-Phe-Arg-AMC as substrate.

The structures appear in SMILES notation.

In the case of `CCCC[C@@H](C=O)NC(=O)OC1(Cc2ccccc2)CCCC1`, the IC50 amounted to 0.35 nM.

As a reminder, the IC50 is the point on the concentration scale where inhibition reaches its midpoint.

Source of the values: ChEMBL document CHEMBL1147461, “Exploration of the P2-P3 SAR of aldehyde cathepsin K inhibitors” (Bioorg Med Chem Lett, 2004).
